Measurements as given in PMC9865020, “Identification of Novel Small Molecule Ligands for JAK2 Pseudokinase Domain” (Pharmaceuticals, 2023).

Protein sequences, listed by entry. Tags and fused reporters are not part of them. Lines headed by an entry give the natural chain unless they say otherwise; changes in a name come on top. Residues count along the entry.
UniProt O60674, 503-827: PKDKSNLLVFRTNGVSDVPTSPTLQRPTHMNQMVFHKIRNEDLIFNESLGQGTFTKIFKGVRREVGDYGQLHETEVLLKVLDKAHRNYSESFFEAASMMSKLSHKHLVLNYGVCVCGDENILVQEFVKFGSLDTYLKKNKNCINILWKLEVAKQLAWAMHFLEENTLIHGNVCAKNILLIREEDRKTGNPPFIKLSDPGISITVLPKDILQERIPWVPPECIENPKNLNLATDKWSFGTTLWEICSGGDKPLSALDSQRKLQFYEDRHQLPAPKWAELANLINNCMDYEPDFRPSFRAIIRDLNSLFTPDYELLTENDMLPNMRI
UniProt O60674, 836-1132 D976N: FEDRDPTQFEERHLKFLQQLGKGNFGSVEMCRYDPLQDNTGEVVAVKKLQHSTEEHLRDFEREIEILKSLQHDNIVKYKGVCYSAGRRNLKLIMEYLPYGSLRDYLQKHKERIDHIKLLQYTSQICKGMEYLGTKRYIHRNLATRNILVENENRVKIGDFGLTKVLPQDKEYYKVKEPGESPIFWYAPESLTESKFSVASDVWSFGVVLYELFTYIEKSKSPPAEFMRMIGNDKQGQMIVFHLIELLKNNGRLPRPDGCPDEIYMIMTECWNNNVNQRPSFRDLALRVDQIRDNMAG
UniProt O60674, 545-809 V617F limits assumed: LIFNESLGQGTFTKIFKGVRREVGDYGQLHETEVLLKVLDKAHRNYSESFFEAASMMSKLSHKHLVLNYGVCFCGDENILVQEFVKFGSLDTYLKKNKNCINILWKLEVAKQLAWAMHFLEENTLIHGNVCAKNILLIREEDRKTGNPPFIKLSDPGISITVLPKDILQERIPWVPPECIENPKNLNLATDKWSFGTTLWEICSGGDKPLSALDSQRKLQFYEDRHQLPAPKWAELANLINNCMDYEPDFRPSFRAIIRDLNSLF
UniProt P23458, 553-836: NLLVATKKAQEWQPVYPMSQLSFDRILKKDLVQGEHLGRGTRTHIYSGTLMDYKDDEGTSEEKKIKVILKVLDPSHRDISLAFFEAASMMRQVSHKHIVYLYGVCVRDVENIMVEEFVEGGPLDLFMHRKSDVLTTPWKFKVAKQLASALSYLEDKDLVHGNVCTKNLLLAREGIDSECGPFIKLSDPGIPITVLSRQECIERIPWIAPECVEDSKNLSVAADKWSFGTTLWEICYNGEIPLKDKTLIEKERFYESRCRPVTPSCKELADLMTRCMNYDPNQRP
UniProt P52333, 811-1124 D949N: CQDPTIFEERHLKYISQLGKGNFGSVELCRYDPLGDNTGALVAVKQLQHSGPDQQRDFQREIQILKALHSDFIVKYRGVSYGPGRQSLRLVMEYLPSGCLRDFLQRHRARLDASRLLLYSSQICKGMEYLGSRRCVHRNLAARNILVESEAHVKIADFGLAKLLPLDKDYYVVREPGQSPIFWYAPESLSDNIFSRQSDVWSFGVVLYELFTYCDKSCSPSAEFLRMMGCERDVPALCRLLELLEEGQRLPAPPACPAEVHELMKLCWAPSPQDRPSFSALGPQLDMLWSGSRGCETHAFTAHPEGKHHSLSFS
UniProt P29597, 564-876: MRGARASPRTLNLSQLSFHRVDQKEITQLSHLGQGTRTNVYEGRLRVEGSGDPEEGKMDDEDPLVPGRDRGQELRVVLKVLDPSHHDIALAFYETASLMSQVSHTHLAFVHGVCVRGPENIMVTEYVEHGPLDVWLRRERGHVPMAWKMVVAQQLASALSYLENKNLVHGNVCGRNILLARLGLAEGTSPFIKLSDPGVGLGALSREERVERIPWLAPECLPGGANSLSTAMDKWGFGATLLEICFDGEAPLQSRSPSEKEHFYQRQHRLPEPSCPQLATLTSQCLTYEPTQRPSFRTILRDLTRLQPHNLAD

Tests used:
JAK2 JH2 wild-type = molecular target: T1, JAK2 JH2 wild-type (Homo sapiens, UniProt O60674); assay: Fluorescence polarization binding assay, Bodipy FL-ATP tracer
T1 construct: Human JAK2 JH2 (503-827); hexa histidine-tag (C); made in house; host or cells: High Five or Sf9 insect cells

JAK2 JH2 = molecular target: T2, JAK2 JH2 (Homo sapiens, UniProt O60674); assay: More sensitive FP binding assay, Bodipy FL-labeled JNJ-7706621 tracer
T2 construct: Human JAK2 JH2 (503-827); hexa histidine-tag (C); made in house; host or cells: High Five or Sf9 insect cells

JAK2 JH1 D976N [1] = molecular target: T3, JAK2 JH1 D976N (Homo sapiens, UniProt O60674, D976N); assay: Fluorescence polarization binding assay, Bodipy FL-ATP tracer
JAK1 JH2 = JAK1 JH2 (Homo sapiens, UniProt P23458); assay: More sensitive FP binding assay, Bodipy FL-labeled JNJ-7706621 tracer; details: from Table 2 binding IC50
JAK3 JH1 D949N = JAK3 JH1 D949N (Homo sapiens, UniProt P52333, D949N); assay: as above
TYK2 JH2 = TYK2 JH2 (Homo sapiens, UniProt P29597); assay: as above
TYK2 JH1 D1023N = molecular target: T4, TYK2 JH1 D1023N (Homo sapiens, UniProt P29597, D1023N); assay: as above
T4 sequence (P29597 886-1187 D1023N): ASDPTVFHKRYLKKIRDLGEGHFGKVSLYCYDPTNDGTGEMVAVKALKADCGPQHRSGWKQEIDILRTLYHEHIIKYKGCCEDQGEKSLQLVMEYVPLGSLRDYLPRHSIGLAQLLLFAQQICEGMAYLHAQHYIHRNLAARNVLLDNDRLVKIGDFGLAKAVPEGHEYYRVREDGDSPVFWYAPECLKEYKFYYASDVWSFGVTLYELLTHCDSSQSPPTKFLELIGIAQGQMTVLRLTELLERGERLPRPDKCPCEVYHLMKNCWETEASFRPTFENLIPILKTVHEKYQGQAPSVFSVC

JAK2 JH1 D976N [2] = molecular target: T3, JAK2 JH1 D976N; assay: as above; set-up: JAK2 JH1 (836-1132) D976N; hexa histidine-tag (C); made in house; host or cells: High Five or Sf9 insect cells
JAK2 JH2 V617F [3] = molecular target: T5, JAK2 JH2 V617F (Homo sapiens, UniProt O60674, V617F); assay: Fluorescence polarization binding assay, Bodipy FL-ATP tracer; set-up: Hyperactive mutation V617F in the JAK2 regulatory pseudokinase domain (JH2); His tag (C); made in house; host or cells: High Five or Sf9 insect cells
JAK2 JH2 V617F [4] = molecular target: T5, JAK2 JH2 V617F; assay: More sensitive FP binding assay, Bodipy FL-labeled JNJ-7706621 tracer; set-up: Hyperactive mutation V617F in the JAK2 regulatory pseudokinase domain (JH2); His tag (C); made in house; host or cells: High Five or Sf9 insect cells

c1nc2nc(Nc3ccc(N4CCOCC4)cc3)nc(NC3CCCCC3)c2[nH]1 [Compound 7, Reversine, reference compound]
IC50 (JAK2 JH2 wild-type): ≤ 3500 nM | IC50 (JAK2 JH2): 1300 nM | IC50 (JAK2 JH1 D976N [1]): ≤ 3500 nM | JAK1 binding JH2-selective over JH1 (JAK1 JH2): 2 fold | IC50 (JAK3 JH1 D949N): 300 nM | IC50 (TYK2 JH2): 60 nM | TYK2 binding JH2-selective over JH1 (TYK2 JH2; from Table 2 binding IC50): 2 fold | IC50 (TYK2 JH1 D1023N): 120 nM | IC50 (JAK2 JH1 D976N [2]): 680 nM | IC50 (JAK2 JH2 V617F [3]): ≤ 3500 nM | IC50 (JAK2 JH2 V617F [4]): 1900 nM
